Assay [1] relates to HTL hydrolyzing enzyme. Briefly: Measurement of hydrolyzing enzyme activity for HTL (DTNB rate assay, H-7170 analyzer). It counts as biochemical, human. The note with it: substrate DL-HTL; for activity value of HTL hydrolyzing enzyme, No addition: Reagent 1(A): 0.5 mM CaCl2, pH 7.8, 37° C., no inhibitor; for activity value of HTL hydrolyzing enzyme, EDTA.2Na: Reagent 1(B): 2 mM EDTA; for activity value of HTL hydrolyzing enzyme, EDTA.2Na / activity value of HTL hydrolyzing enzyme, Physostigmine sulfate / activity value of HTL hydrolyzing enzyme, Neostigmine bromide: pH 7.8, 37° C.; for activity value of HTL hydrolyzing enzyme, Physostigmine sulfate: Reagent 1(C): 0.5 mM CaCl2, 0.1 mM physostigmine sulfate; for activity value of HTL hydrolyzing enzyme, Neostigmine bromide: Reagent 1(D): 0.5 mM CaCl2, 0.1 mM neostigmine bromide. The method, then:
Hydrolyzing enzyme activity for HTL was measured with purified water and above-mentioned samples.
Reagent 1(A): SH-group detection solution; 0.2 M MOPS buffer containing 0.5 mM CaCl2 and 1.0 mM DTNB (pH 7.8).
Reagent 1(B): SH-group detection solution; 0.2 M MOPS buffer containing 2 mM EDTA and 1.0 mM DTNB (pH 7.8).
Reagent 1(C): SH-group detection solution; 0.2 M MOPS buffer containing 0.5 mM CaCl2, 0.1 mM physostigmine sulfate and 1.0 mM DTNB (pH 7.8).
Reagent 1(D): SH-group detection solution; 0.2 M MOPS buffer containing 0.5 mM CaCl2, 0.1 mM neostigmine bromide and 1.0 mM DTNB (pH 7.8).
Reagent 2: substrate solution; aqueous solution containing 125 mM DL-HTL (Tokyo Chemical Industry Co., Ltd).
For measurement of HTL hydrolyzing enzyme activity, H-7170 automatic analyzer (Hitachi, Ltd.) was used. Parameters for measurement were as follows.
Following the above parameters, purified water, 15 μl of a sample and 200 μl of reagent 1(A) or 1(B) or 1(C) or 1(D) was dispensed and mixed, and, after a certain length of time at a constant temperature (37° C., 5 min), 50 μl of reagent 2 was added and mixed to allow reaction to start. When reagent 2 was added to the mixture of the fraction containing serum, plasma, albumin or HDL and reagent 1(A), 1(C) or 1(D), increase in absorbance was detected which was due to the reaction of the SH-group detection reagent with DL-homocysteine, which has a free SH group, formed by hydrolysis of HTL.
The activity value of HTL hydrolyzing enzyme in each sample was calculated based on: the change in absorbance per unit of time (1 min) (ΔE) from 2-minute up to 4-minute time points after the addition of the substrate (reagent 2), the molecular extinction coefficient of 5-thio-2-nitrobenzoic acid at the wavelength of 480 nm, ε=2509, and the molecular extinction coefficient of the compound at the wavelength of 546 nm, ε=78.

The test system of assay [2] is HTL hydrolyzing enzyme. Briefly: Measurement of hydrolyzing enzyme activity for TBL (DTNB rate assay, H-7170 analyzer). The assay is classed as biochemical, human. As to conditions: substrate TBL; for activity value of HTL hydrolyzing enzyme for TBL, No addition: Reagent 1(A): 0.5 mM CaCl2, pH 7.2, 37° C., no inhibitor; for activity value of HTL hydrolyzing enzyme for TBL, EDTA.2Na: Reagent 1(B): 2 mM EDTA; for activity value of HTL hydrolyzing enzyme for TBL, EDTA.2Na / activity value of HTL hydrolyzing enzyme for TBL, Physostigmine sulfate / activity value of HTL hydrolyzing enzyme for TBL, Neostigmine bromide: pH 7.2, 37° C.; for activity value of HTL hydrolyzing enzyme for TBL, Physostigmine sulfate: Reagent 1(C): 0.5 mM CaCl2, 0.1 mM physostigmine sulfate; for activity value of HTL hydrolyzing enzyme for TBL, Neostigmine bromide: Reagent 1(D): 0.5 mM CaCl2, 0.1 mM neostigmine bromide. The procedure:
Hydrolyzing enzyme activity for TBL was measured with above-mentioned samples and unprepared serum.
Reagent 1(A): SH-group detection solution; 0.2 M MOPS buffer containing 0.5 mM CaCl2 and 1.0 mM DTNB (pH 7.2).
Reagent 1(B): SH-group detection solution; 0.2 M MOPS buffer containing 2 mM EDTA and 1.0 mM DTNB (pH 7.2).
Reagent 1(C): SH-group detection solution; 0.2 M MOPS buffer containing 0.5 mM CaCl2, 0.1 mM physostigmine sulfate and 1.0 mM DTNB (pH 7.2).
Reagent 1(D): SH-group detection solution; 0.2 M MOPS buffer containing 0.5 mM CaCl2, 0.1 mM neostigmine bromide and 1.0 mM DTNB (pH 7.2).
Reagent 2: substrate solution; aqueous solution containing 125 mM TBL (Aldrich).
For measurement of hydrolyzing enzyme activity TBL, H-7170 automatic analyzer (Hitachi, Ltd.) was used. Parameters for measurement were as follows.
Following the above parameters, 15 μl of a sample and 200 μl of reagent 1(A) or 1(B) or 1(C) or 1(D) was dispensed and mixed, and, after a certain length of time at a constant temperature (37° C., 5 min), 50 μl of reagent 2 was added and mixed to allow reaction to start. When reagent 2 was added to the mixture of the fraction containing serum, plasma, cholinesterase or HDL and reagent 1(A), increase in absorbance was detected which was due to the reaction of the SH-group detection reagent with 4-mercaptobutyric acid, which has a free SH group, formed by of HTL hydrolyzing enzyme.
The activity value of HTL hydrolyzing enzyme for TBL in each sample was calculated based on: the change in absorbance per unit of time (1 min) (ΔE) from 2-minute up to 4-minute time points after the addition of the substrate (reagent 2), the molecular extinction coefficient of 5-thio-2-nitrobenzoic acid at the wavelength of 480 nm, ε=2509, and the molecular extinction coefficient of the compound at the wavelength of 546 nm, ε=78.

As to “HSA A-1653: Human albumin (A-1653, Sigma) dissolved in purified water, 5% human albumin solution”, in assay [1], the “activity value of HTL hydrolyzing enzyme, No addition” value worked out at 26; the “activity value of HTL hydrolyzing enzyme, EDTA.2Na” value is on record as 22; the “activity value of HTL hydrolyzing enzyme, Physostigmine sulfate” value is listed as 25; the “activity value of HTL hydrolyzing enzyme, Neostigmine bromide” value is recorded as 20. Besides, in assay [2], the “activity value of HTL hydrolyzing enzyme for TBL, No addition” value (from here on “activity value … for TBL, No addition”) was 32; the “activity value of HTL hydrolyzing enzyme for TBL, EDTA.2Na” value (shortened to “activity value … for TBL, EDTA.2Na”) turned out to be 29; the “activity value of HTL hydrolyzing enzyme for TBL, Physostigmine sulfate” value (from here on “activity value … for TBL, Physostigmine sulfate”) was found to be 2; the “activity value of HTL hydrolyzing enzyme for TBL, Neostigmine bromide” value (from here on “activity value … for TBL, Neostigmine bromide”) was determined as 2. In assay [2] (listed as A-1653), the “activity value … for TBL, No addition” value is on record as “observed”.
With “HSA 05418: Human albumin (05418, Fluca) dissolved in purified water, 5% human albumin solution”, in assay [1], the “activity value of HTL hydrolyzing enzyme, No addition” value is listed as 31; the “activity value of HTL hydrolyzing enzyme, EDTA.2Na” value turned out to be 30; the “activity value of HTL hydrolyzing enzyme, Physostigmine sulfate” value is recorded as 28; the “activity value of HTL hydrolyzing enzyme, Neostigmine bromide” value worked out at 31. In assay [2], the “activity value … for TBL, No addition” value is recorded as 8; the “activity value … for TBL, EDTA.2Na” value is listed as 8; the “activity value … for TBL, Physostigmine sulfate” value came to 6; the “activity value … for TBL, Neostigmine bromide” value was 7.
For the substance “HSA A-3782: Human albumin (A-3782, Sigma) dissolved in purified water, 5% human albumin solution”, in assay [1], the “activity value of HTL hydrolyzing enzyme, No addition” value came to 26; the “activity value of HTL hydrolyzing enzyme, EDTA.2Na” value came out at 23; the “activity value of HTL hydrolyzing enzyme, Physostigmine sulfate” value is 28; the “activity value of HTL hydrolyzing enzyme, Neostigmine bromide” value is 28. Further, in assay [2], the “activity value … for TBL, No addition” value is recorded as 2; the “activity value … for TBL, EDTA.2Na” value was 2; the “activity value … for TBL, Physostigmine sulfate” value was 2; the “activity value … for TBL, Neostigmine bromide” value amounted to 2.
Consider “HSA A-1887: Human albumin (A-1887, Sigma) dissolved in purified water, 5% human albumin solution”, for which, in assay [1], the “activity value of HTL hydrolyzing enzyme, No addition” value was 28; the “activity value of HTL hydrolyzing enzyme, EDTA.2Na” value is 25; the “activity value of HTL hydrolyzing enzyme, Physostigmine sulfate” value is given as 26; the “activity value of HTL hydrolyzing enzyme, Neostigmine bromide” value worked out at 27. For the same substance, in assay [2], the “activity value … for TBL, No addition” value is recorded as 7; the “activity value … for TBL, EDTA.2Na” value is 8; the “activity value … for TBL, Physostigmine sulfate” value came out at 4; the “activity value … for TBL, Neostigmine bromide” value is reported as 5.
Turning to “HSA 126654: Human albumin (126654, Calbiochem) dissolved in purified water, 5% human albumin solution”, in assay [1], the “activity value of HTL hydrolyzing enzyme, No addition” value amounted to 19; the “activity value of HTL hydrolyzing enzyme, EDTA.2Na” value was 17; the “activity value of HTL hydrolyzing enzyme, Physostigmine sulfate” value came to 17; the “activity value of HTL hydrolyzing enzyme, Neostigmine bromide” value was determined as 21. In assay [2], the “activity value … for TBL, No addition” value turned out to be 1; the “activity value … for TBL, EDTA.2Na” value is on record as 1; the “activity value … for TBL, Physostigmine sulfate” value worked out at 0; the “activity value … for TBL, Neostigmine bromide” value is reported as 1.

(Values after patent publication US20070243571A1, “Method for Measurement of Activity of Homocysteinethiolactone Hydrolyzing Enzyme” (priority 2004, published 2007).)
